Data reported in BindingDB's records for 25190468.

Sequences of proteins named here, by UniProt entry; tags and fusion partners are left off. Residues count along the entry.
UniProt P22303, 32-614 limits assumed: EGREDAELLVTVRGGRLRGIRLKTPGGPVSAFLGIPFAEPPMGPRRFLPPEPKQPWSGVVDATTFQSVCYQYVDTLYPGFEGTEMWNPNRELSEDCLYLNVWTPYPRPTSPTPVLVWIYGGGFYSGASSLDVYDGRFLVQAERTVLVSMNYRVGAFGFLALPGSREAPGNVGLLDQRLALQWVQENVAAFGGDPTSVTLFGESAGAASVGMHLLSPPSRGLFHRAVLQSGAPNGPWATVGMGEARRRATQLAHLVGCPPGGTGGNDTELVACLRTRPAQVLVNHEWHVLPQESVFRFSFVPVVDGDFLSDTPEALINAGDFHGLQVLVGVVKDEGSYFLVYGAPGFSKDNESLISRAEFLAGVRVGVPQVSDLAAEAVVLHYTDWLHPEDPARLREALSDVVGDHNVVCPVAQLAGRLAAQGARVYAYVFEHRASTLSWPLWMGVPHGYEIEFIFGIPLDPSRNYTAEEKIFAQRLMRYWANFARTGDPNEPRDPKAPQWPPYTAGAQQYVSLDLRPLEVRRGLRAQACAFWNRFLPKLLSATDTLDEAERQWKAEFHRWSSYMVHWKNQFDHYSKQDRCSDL

Molecular target: Acetylcholinesterase (Homo sapiens, UniProt P22303)
Experiment: Binding affinity to paraoxon-inhibited AChE (unknown origin)

Row | Structure (SMILES) | Kd
1 | C[n+]1cccc(C=NO)c1 | 175 µM
2 | NC(=O)c1cc[n+](Cc2ccc(C[n+]3ccc(/C=N/O)cc3)cc2)cc1 | 173 µM
3 | CC(=O)/C(C)=N/O | 393 µM
4 | CC(=O)/C=N/O | 128 µM
5 | O/N=C/c1cc[n+](Cc2ccccc2C[n+]2ccc(/C=N/O)cc2)cc1 | 112 µM
6 | O/N=C/c1cc[n+](Cc2ccc(C[n+]3ccc(/C=N/O)cc3)cc2)cc1 | 107 µM
7 | NC(=O)c1cc[n+](Cc2ccccc2C[n+]2ccc(/C=N/O)cc2)cc1 | 174 µM
